Compound activity (PubChem BioAssay)
Sampled rows, rich in hits. Any-hit rate of the full collection: about 3.7%.
A549 viability = kills or reduces viability of A549 cells in Nrf2 counter-screen | A549 ARE-Fluc cells, CellTiter-Fluor viability, 18-24 h | Potency, µM (series often up to 46 µM), actives largely listed as inhibitors | hit rate 0.16% among 390,000
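Cytotoxicity counterscreen: CellTiter-Fluor fluorescence was measured in A549 ARE_Fluc cells after 18-24 h of compound exposure in a concentration series. The subsequent BugLite luminescent read reports ARE-luciferase activity.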
Nrf2 inh = inhibitors of Nrf2 signaling | A549 ARE-Fluc reporter, luciferase luminescence, 18-24 h | Potency, µM (titrated, usually from 46 µM), most hits filed as inhibitors | hit rate 2.1% among 360,000 | AID 504444; also: nearly all actives have a fitted effect of over 60% in size
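A549 ARE_Fluc cells (5000/well, 5% FBS OPTI-MEM) pre-incubated 2 h, then treated with compounds 18-24 h at 37C/5% CO2 in concentration-response. CellTiter-Fluor viability read first; BugLite luciferase luminescence after 15 min at room temperature gives Nrf2 activity.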
Nrf2 ARE act = Nrf2 pathway activation; AREc32 ARE-luciferase reporter (MCF7-derived line), luminescence, 24 h; Potency, µM (top dose mostly 46.1 µM), actives largely listed as activators; hit rate 0.31% among 410,000; AID 624171; also: nearly all actives have a fitted effect of over 65% in size
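Cells of the AREc32 ARE-luciferase line are plated in OPTI-MEM containing 5% FBS and left overnight at 37 deg C. Compounds are pinned in, incubation continues 24 hr, and firefly luciferase signal is then measured.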
TCR act = T cell receptor activation; primary human leukocytes, anti-CD3, IL-2 HTRF, 48 h; Potency, µM (doses to about 9.22 µM), hits mostly activators; 330,000 tested, under 10 active
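1) Mix primary human leukocytes, a-CD3 beads and compound. 2) Incubate 48 hr. 3) Add HTRF IL-2 reagents (a-IL-2-K, a-IL-2-d2).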
ClpP mod = qHTS Assay for Activators of ClpP; ATP-dependent Clp protease proteolytic subunit (Bacillus subtilis (strain 168)), P80244; purified B. subtilis ClpP, FRET peptide cleavage, 20 min; Potency, µM (doses to about 57.5 µM); hit rate 1.9% among 340,000; active = well fitted falling curve with a large enough effect; inconclusive = small, poorly fitted or top-dose-only effect; inactive = no such curve, though single readings can be large or run the other way; also: the source files actives as falling curves though it sought activators and does not explain the sign; nearly all actives have a fitted effect of over 65% in size
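FRET quenching reversal measured ClpP activation: 10 microg/mL B. subtilis ClpP at pH 8 with the FRET-FV decapeptide, read at 430 nm after 320 nm excitation. The 20-min minus 0-min signal was scaled between DMSO/no-enzyme wells and ADEP (5.8 microM final).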
miR-21 reporter = raises the signal of a miR-21 reporter; 340,000 tested, under 10 active; HeLa miR-21 FLuc reporter, luciferase, 48 h; Potency, µM (highest dose often 38.3 µM); active = well fitted rising curve with a large enough effect; inconclusive = small, poorly fitted or top-dose-only effect; inactive = no such curve, though single readings can be large or run the other way;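 also: miR-21 action dims this reporter so a rising signal means less miR-21 action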
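Compounds were titrated across several concentrations (up to approximately 40 uM) and incubated 48 hours with HeLa miR-21-FLuc reporter cells (miR-21 target sequence downstream of FLuc, endogenous miR-21). Readout was firefly luciferase luminescence after lytic detection reagent.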
Of the large screens only hits and unclear results are named; the others gave an inactive call. Unless noted, calls follow the shape of the dose curve; as a rule, active = well fitted curve in the direction sought with a large enough effect; inconclusive = small, poorly fitted or top-dose-only effect, or another doubt; inactive = no such curve, though single readings can be large; an effect the other way counts as inactive or inconclusive.

Chains of the proteins cited; added tags and fusions are not shown.
ATP-dependent Clp protease proteolytic subunit (Bacillus subtilis (strain 168)), P80244, UniProt P80244, whole entry, looked up: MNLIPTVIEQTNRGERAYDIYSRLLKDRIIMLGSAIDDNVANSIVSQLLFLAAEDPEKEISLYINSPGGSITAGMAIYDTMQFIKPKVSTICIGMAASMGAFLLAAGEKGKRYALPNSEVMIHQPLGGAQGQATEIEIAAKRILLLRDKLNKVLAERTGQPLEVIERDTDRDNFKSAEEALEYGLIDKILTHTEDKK

CC12CC[C@H]3[C@@H](CCC4(O)C[C@H](O)CCC34/C=N/NC(=O)c3ccc(O)cc3)C1(O)CCC2C1=CC(=O)OC1 (stereo not given in full)	none
O=C(O)CNC(=O)C(CS)Cc1ccccc1 (stereo not given)	Nrf2 inh 10µM (no result: miR-21 reporter)
CC(Cc1ccccc1)NC(N)=O (stereo not given)	none (no result: ClpP mod)
C=C1C(=O)O[C@@H]2C[C@@H](C)[C@@H]3C=CC(=O)[C@@]3(C)[C@@H](O)[C@H]12	A549 viability 9.2µM, Nrf2 inh 3.7µM, miR-21 reporter inconclusive
C=C1C(=O)O[C@@H]2C[C@@H](C)[C@@H]3C=CC(=O)[C@@]3(C)[C@@H](OC(C)=O)[C@H]12	A549 viability 9.2µM, Nrf2 inh 4.1µM, miR-21 reporter inconclusive
CCn1nc(C)c(CN2CCCC(C(=O)c3cccc(OC(C)C)c3)C2)c1C (stereo not given)	Nrf2 inh 10µM
CCCC(C)c1nnc(NC(=O)CCS(=O)(=O)c2ccccc2)s1 (stereo not given)	Nrf2 ARE act 22µM (no result: ClpP mod)
CCOc1ccc2nc(N=Nc3c(O)[nH]c(=S)[nH]c3=O)sc2c1	A549 viability 23µM (no result: ClpP mod)
CCOc1ccc2nc(N=Nc3c(O)[nH]c(=O)[nH]c3=O)sc2c1	A549 viability inconclusive
CN(C)C(=O)Oc1ccc(-c2cn3cc(Cl)ccc3n2)cc1	Nrf2 inh inconclusive, ClpP mod inconclusive
CN(C)C(=O)Oc1ccc(-c2cn3cc(C(F)(F)F)ccc3n2)cc1	ClpP mod 10µM
CCC(=NCc1cc(OC)cc(OC)c1)c1c(O)n(C)c(=O)n(C)c1=O	A549 viability inconclusive, Nrf2 inh 23µM
CCOC(=O)CC(SP1(=S)OCC2(CCCCC2)CO1)C(=O)OCC (stereo not given)	ClpP mod 28µM (no result: miR-21 reporter)
CCCC/C(=N/O)c1c(C)[nH]c2ccccc12	ClpP mod 28µM
CCCCn1c(O)c(C(CC)=Nc2ccc(OC)cc2OC)c(=O)[nH]c1=O	Nrf2 inh inconclusive
CCCCn1c(O)c(C(CC)=Nc2ccc(OCC)cc2)c(=O)[nH]c1=O	Nrf2 inh 13µM
CCN(CC)S(=O)(=O)c1ccc2c(c1)c(=O)c(C(=O)NCc1ccccc1OC)cn2C	Nrf2 inh inconclusive (no result: TCR act)
CSc1cccc(CNC(=O)C2CCC(=O)N(Cc3cccc(C(F)(F)F)c3)C2)c1 (stereo not given)	Nrf2 inh inconclusive
CC1CC(C)CN(S(=O)(=O)c2ccc3c(c2)oc(=O)n3CC(=O)NCc2cccnc2)C1 (stereo not given)	Nrf2 inh inconclusive
CN(Cc1ccccc1)C(=O)Cn1c(=O)oc2cc(S(=O)(=O)NCc3ccccc3)ccc21	Nrf2 inh 18µM
Cc1ccc(NC(=O)C2CCN(C(=O)c3cnn(-c4ccccc4)c3-n3cccc3)CC2)cc1Cl	Nrf2 inh inconclusive (no result: TCR act)
O=C(CCl)NN=C(c1ccccc1)c1ccccc1	Nrf2 inh inconclusive (no result: ClpP mod)
COc1cccc(C(=O)N/N=C(/c2ccccc2)c2ccccn2)c1	A549 viability inconclusive, Nrf2 inh 10µM
Nc1ccc2c3c(cccc13)CC2	ClpP mod 14µM
CC(Oc1ccc(Br)cc1)C(=O)N(Cc1nc(-c2ccccc2)no1)C(C)C (stereo not given)	Nrf2 inh inconclusive (no result: TCR act)
CCCCCCC(=O)N/N=C/c1c(O)n(C(C)CC)c(=S)[nH]c1=O (stereo not given)	Nrf2 inh 15µM
Cc1cc(-c2nc3ccccc3s2)ccc1NC(=O)c1cc(Cl)ccc1Cl	Nrf2 inh inconclusive (no result: TCR act)
CN1CCCC1c1ccc(=O)[nH]c1 (stereo not given)	ClpP mod 32µM (no result: miR-21 reporter)
CCN1/C(=C\C=C\C2=[N+](CC)c3ccccc3C2(C)C)C(C)(C)c2ccccc21	A549 viability 5.2µM, Nrf2 inh 0.65µM, miR-21 reporter inconclusive
Cc1cc(C)cc(-n2c(=O)[nH]c3ccccc3c2=O)c1	none (no result: TCR act)
COc1cc2[nH]c(=O)n(-c3cccc(Cl)c3)c(=O)c2cc1OC	ClpP mod 28µM
COc1cc2[nH]c(=O)n(-c3ccccc3)c(=O)c2cc1OC	ClpP mod 25µM
CCc1ccccc1NC(=O)C(CC)Oc1ccccc1-c1nnc(-c2ccccc2)o1 (stereo not given)	Nrf2 inh inconclusive, ClpP mod inconclusive, miR-21 reporter inconclusive (no result: TCR act)
Cc1ccc(C)c(S(=O)(=O)c2nnn3c2nc(N2CCCC2)c2sccc23)c1	Nrf2 inh inconclusive, ClpP mod inconclusive (no result: TCR act)
CCN(CC)P(=O)(Nc1ccc([N+](=O)[O-])cc1)c1c(C)nn(CCC#N)c1NC(=O)c1ccc(Cl)cc1Cl (stereo not given)	Nrf2 inh inconclusive, ClpP mod inconclusive
Nc1ccc2c(c1)Cc1cc([N+](=O)[O-])ccc1-2	none (no result: ClpP mod)
Nc1ccc2c(c1)Cc1ccccc1-2	Nrf2 inh inconclusive, ClpP mod 11µM
COc1c(C)cc(Br)cc1C(=O)Nc1ccc(-c2nc3ncccc3o2)cc1	Nrf2 inh inconclusive (no result: TCR act)
COc1ccc(CCNC(=O)c2cnc3sc(N4CCCCCC4)nn3c2=O)cc1	Nrf2 inh inconclusive (no result: TCR act)
O=C(Nc1ccc2nc3n(c(=O)c2c1)CCCCC3)c1cccc(C(F)(F)F)c1	Nrf2 inh 12µM (no result: TCR act)
NCC(=O)c1ccc(Cl)c(Cl)c1	none (no result: A549 viability, Nrf2 inh, Nrf2 ARE act, TCR act, miR-21 reporter)
COC(=O)C1=C(c2ccc(C(C)=O)cc2)C[C@@H]2CC[C@H]1N2C(=O)N1CCC(O)(c2ccc(Cl)cc2)CC1	Nrf2 inh 23µM (no result: miR-21 reporter)
Cc1ccccc1-c1nc(CS(=O)CC(=O)N2CCN(c3cc(Cl)ccc3C)CC2)c(C)o1 (stereo not given)	Nrf2 inh inconclusive, miR-21 reporter inconclusive (no result: TCR act)
O=[N+]([O-])c1ccc(CN2CC=C(c3ccccc3)CC2)cc1	Nrf2 inh inconclusive (no result: ClpP mod)
C1=C(c2c[nH]c3ccccc23)CCN(Cc2ccccc2)C1	Nrf2 inh 6.5µM
Cc1ccc(C)c(NP(=O)(Oc2ccccc2)Oc2ccccc2)c1	A549 viability inconclusive, Nrf2 inh 21µM
O=C1/C(=C/c2ccc(N(CCCl)CCCl)cc2)Cc2ccccc21	none (no result: A549 viability, Nrf2 inh, Nrf2 ARE act, TCR act, miR-21 reporter)
Cc1ccccc1OCCN=Cc1c(O)n(C)c(=O)n(C)c1=O	Nrf2 inh 21µM
COC(=O)C1=C(c2ccc(Cl)c(C(F)(F)F)c2)C[C@@H]2CC[C@H]1N2C(=O)NCCOc1ccccc1Cl	A549 viability inconclusive, Nrf2 inh 23µM (no result: miR-21 reporter)
COC(=O)C1=C(c2cccc(OCc3ccccc3)c2)C[C@@H]2CC[C@H]1N2C(=O)NCCOc1ccc(OC)cc1	Nrf2 inh 15µM (no result: miR-21 reporter)
